Reference: patent publication US20230158025A1 (UNIVERSITY OF UTAH RESEARCH FOUNDATION, priority 2020, published 2023)

The chains behind the UniProt entries cited, without tags or fusion partners. Where a name states a change or a piece, a line headed by the entry shows the natural chain unless it says otherwise.
UniProt P51570: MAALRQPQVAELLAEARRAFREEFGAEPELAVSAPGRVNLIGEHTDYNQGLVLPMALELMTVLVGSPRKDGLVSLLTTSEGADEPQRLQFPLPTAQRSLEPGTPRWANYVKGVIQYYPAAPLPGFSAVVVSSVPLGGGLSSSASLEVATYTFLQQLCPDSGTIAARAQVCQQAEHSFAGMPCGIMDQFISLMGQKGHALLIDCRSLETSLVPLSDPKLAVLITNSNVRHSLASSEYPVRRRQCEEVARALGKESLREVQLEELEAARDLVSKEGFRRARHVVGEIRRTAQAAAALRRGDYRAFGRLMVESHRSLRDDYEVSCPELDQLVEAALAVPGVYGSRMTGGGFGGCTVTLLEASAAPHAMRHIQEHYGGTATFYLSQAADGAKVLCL

Target: recombinant human GALK1 (Homo sapiens, UniProt P51570)
Assay: hGALK1 biochemical activity assay (Kinase-Glo Plus, ATP depletion)
Conditions: bracketed figure in the cell, e.g. (−1.2), is not defined in the text shown, read-out: hGALK
Method: In vitro hGALK1 activity assays were performed as previously described. Liu et al., Bioorg. Med. Chem. Lett. 25(3): 721-727 (2015), which is incorporated by reference herein for the specific teachings thereof. The biochemical assay was performed by coupling the activity of recombinant human or mouse GALK1 to the Kinase-Glo Plus luminescent ATP detection kit, using ATP depletion as a measure of GALK1 turnover. Specifically, three μL/well of ATP substrate solution (35 μM ATP) in assay buffer (20 mM HEPES pH 8.0, 5 mM MgCl2, 60 mM NaCl, 1 mM DTT, 0.01% BSA final concentration) was dispensed into 1536-well assay plates (Greiner, white solid-bottom medium-binding plates). Aliquots of compound (23 nL solubilized in DMSO) were transferred to the assay plates using a Kalypsys 1536-well pintool such that 11 concentrations with 1/3 dilutions ranging from 57.4 μM-0.97 nM are tested. One μL/well of GALK-galactose solution (5 nM GALK1, 100 μM galactose) in assay buffer was then added, yielding a final reaction volume of 4 μL/well. Following a 1-hour room temperature incubation, 4 μL of Kinase-Glo Plus detection reagent was added to provide an ATP-dependent luminescent readout (final assay volume: 8 μL/well). Luminescence was detected using a ViewLux plate reader (PerkinElmer) after a 10-minute incubation, using a 1 second exposure time and 2× binning.

For `CN(C)C(=O)C1CC(=O)C2=C(C1)NC(Nc1nc3ccccc3o1)=NC2c1ccccc1Cl` (stereo not shown) [Compound 277, 2-(benzo[d]oxazol-2-ylamino)-4-(2-chlorophenyl)-N,N-dimethyl-5-oxo-1,4,5,6,7,8-hexahydroquinazoline-7-carboxamide], the IC50 was 3.43 µM.
